Test results taken from patent US20130191934A1, “TREATMENT OF SYMPTOMS ASSOCIATED WITH MENOPAUSE” (INDIANA UNIVERSITY RESEARCH AND TECHNOLOGY CORPORA, priority 2010, published 2013).
“Also recorded” adds a separate entry of the source.

How the values were obtained:
[1] = tested on: bilaterally ovariectomized adult female rats
ORX1 and ORX2 receptors = conditions: cited from earlier work
panic-prone rats = assay: Sodium lactate challenge in panic-prone (l-allylglycine) rats; type: in vivo, rat; conditions: 30 mg/kg i.p., FIG. 1e
Text: Panic disorder is associated with disruption of central inhibitory gamma-aminobutyric acid (GABAergic) tone, and may contribute to panic attacks which are consistently provoked by ordinarily mild physical stressors such as mild osmotic disturbances (e.g., intravenous sodium lactate challenges).
Orexin/hypocretin producing neurons are almost exclusive to dorsomedial hypothalamus and adjacent lateral hypothalamus, and play a critical role in maintaining wakefulness, vigilance and central sympathetic mobilization, which are key components of panic and anxiety. Experiments were conducted to investigate whether the administration of either a systemic orexin 1 antagonist or silencing the hypothalamic orexin gene product with RNA interference could block lactate-induced panic responses.

Question: Which “OVEX-induced adverse menopausal activity (circadian disruption of tail temperature, tail temp responses to challenges, anxiety-like behavior)” value [1] does the source give for Cc1nc2ccc(NC(=O)Nc3ccnc4cccnc34)cc2o1 [SB334867, 1-(2-methylbenzoxazol-6-yl)-3-[1,5]naphthyridin-4-yl urea] here?
Answer: The value was “attenuated”.

Question: And the “selectivity for ORX1 over ORX2 receptors” value (ORX1 and ORX2 receptors)?
Answer: The value was “around 100 ×”.

Question: What about the “lactate induced increases in general locomotor activity (flight behavior)” value (panic-prone rats) of the same molecule?
Answer: The value was “block; also recorded: attenuated”.

Question: And the “lactate induced increases in general locomotor activity (flight behavior)” value (panic-prone rats; listed as orexin 1 receptor antagonist)?
Answer: The value was “blocks”.
